Assays:
[1] = test system: dairy cattle; assay: Tolerability limits: intake limits of minerals for dairy cattle; format: in vivo; settings: at the maximum allowable limit
[2] = test system: dairy cattle; settings: cited from earlier work

Substance: Mercury
- Intake for a Cow Consuming 20.14 kg DM/day [1]: 40 mg/day
- Maximum Allowable Component Intake Limit per Daily kg of DM Consumption [2]: 2 mg/kg DMI
